This passage reports Ka results from ChEMBL document CHEMBL3745659, “Synthesis and Characterization of 4,11-Diaminoanthra[2,3-b]furan-5,10-diones: Tumor Cell Apoptosis through tNOX-Modulated NAD(+)/NADH Ratio and SIRT1” (J Med Chem, 2015).

The assay deals with Calf thymus DNA. As to the kind of experiment: Binding affinity to calf thymus double stranded DNA by spectrophotometric titration method. The assay is classed as nucleic-acid assay. The conditions noted are these: Bos taurus. In a few lines: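 Absorption spectra of compound recorded while double-stranded DNA concentration was increased (spectrophotometric titration); extinction at absorption maxima 540 and 585 nm and band shift followed.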

For `COc1cccc2c1C(=O)c1c(O)c3c(c(O)c1C2=O)C[C@@](O)(C(=O)CO)C[C@@H]3O[C@H]1C[C@H](N)[C@H](O)[C@H](C)O1` [DOXORUBICIN], the Ka was determined as 2 ×10⁶ /M.
